Experimental findings from patent US20070213394A1 (priority 2004, published 2007) are described below.

Chains of the proteins cited; added tags and fusions are not shown.
UniProt P41145, whole entry: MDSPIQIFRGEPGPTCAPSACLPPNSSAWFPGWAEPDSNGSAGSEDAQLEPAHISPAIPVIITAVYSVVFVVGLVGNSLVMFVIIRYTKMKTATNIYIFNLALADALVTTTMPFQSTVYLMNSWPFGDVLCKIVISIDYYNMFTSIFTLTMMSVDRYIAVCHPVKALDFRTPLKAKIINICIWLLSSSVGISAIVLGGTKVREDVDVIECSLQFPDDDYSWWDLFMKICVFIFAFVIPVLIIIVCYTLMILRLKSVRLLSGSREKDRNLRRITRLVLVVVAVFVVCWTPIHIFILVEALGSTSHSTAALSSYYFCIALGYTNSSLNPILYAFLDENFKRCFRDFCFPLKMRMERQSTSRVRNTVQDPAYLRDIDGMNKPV

The target in this test is human kappa opioid receptor (Homo sapiens, UniProt P41145). As to conditions: Table 1.

Read-outs that look alike come from different tables or passages of the source.

In turn, `CC(=O)O[C@H]1C[C@@H](C(=O)N[C@H](CO)C(=O)OCc2ccccc2)[C@]2(C)CC[C@H]3C(=O)O[C@H](c4ccoc4)C[C@]3(C)[C@H]2C1=O` showed an inhibition constant (Ki) (cells printed in μM) of more than 10 µM.

On to `CC(=O)O[C@H]1C[C@@H](C(=O)NCC(=O)OCc2ccccc2)[C@]2(C)CC[C@@H]3C(=O)O[C@H](c4ccoc4)C[C@]3(C)[C@H]2C1=O`, for which the inhibition constant (Ki) (human kappa opioid receptor) worked out at 1.45 µM.

In general, Ki refers to a dissociation constant, usually derived from enzyme kinetics or from competition with a known ligand. A lower Ki goes with tighter binding.
